What was measured:
[1] = test system: JAK1-dependent STAT6 phosphorylation downstream of IL-13 stimulation in BEAS-2B human bronchial epithelial cells; assay: JAK1 pathway assay in BEAS-2B cells (IL-13-pSTAT6, MSD); conditions: read-out: IL13-pSTAT6 EC50 (uM)_BEAS-2B, tested form: formate
[2] = target: isolated recombinant JAK1 kinase domain (Homo sapiens (Human), UniProt P23458); assay: JAK1 enzyme assay (Caliper LabChip, peptide phosphorylation); assay type: biochemical; conditions: read-out: JAK1 Ki; tested form: formate
[3] = target: isolated recombinant JAK2 kinase domain (Homo sapiens (Human), UniProt O60674); assay: JAK2 enzyme assay (Caliper LabChip, peptide phosphorylation); assay type: biochemical; conditions: read-out: JAK2 Ki, 25 μM ATP, tested form: formate

Protein sequences, listed by entry. Tags and fused reporters are not part of them. Residues count along the entry.
UniProt P23458, 875-1153 limits assumed: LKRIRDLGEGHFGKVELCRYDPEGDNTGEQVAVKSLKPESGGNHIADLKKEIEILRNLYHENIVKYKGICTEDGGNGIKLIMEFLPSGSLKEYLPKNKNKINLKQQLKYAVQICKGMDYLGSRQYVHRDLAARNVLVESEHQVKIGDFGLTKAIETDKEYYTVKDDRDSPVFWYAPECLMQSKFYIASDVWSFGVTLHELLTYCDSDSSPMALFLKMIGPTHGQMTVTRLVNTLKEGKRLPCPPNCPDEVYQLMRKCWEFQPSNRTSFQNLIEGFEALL
UniProt O60674, 849-1124 limits assumed: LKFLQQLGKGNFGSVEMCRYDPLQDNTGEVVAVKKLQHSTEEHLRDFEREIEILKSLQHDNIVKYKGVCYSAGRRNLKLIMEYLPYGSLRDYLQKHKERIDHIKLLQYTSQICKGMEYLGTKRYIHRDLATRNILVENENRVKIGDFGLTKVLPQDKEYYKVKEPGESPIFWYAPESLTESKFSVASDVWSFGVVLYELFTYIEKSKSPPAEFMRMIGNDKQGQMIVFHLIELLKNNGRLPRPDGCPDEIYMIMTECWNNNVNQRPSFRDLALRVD

O=C(Nc1cn(CC(=O)N2CCC(N3CC(O)CCC3=O)CC2)nc1-c1cc(Cl)ccc1OC(F)F)c1cnn2cccnc12 (stereo not drawn) showed an EC50 [1] of 0.0343 µM, a Ki [2] of 0.39 nM and a Ki [3] of 0.88 nM.

Reference: patent publication US9346815B2, “5-chloro-2-difluoromethoxyphenyl pyrazolopyrimidine compounds, compositions and methods of use thereof” (Genentech, Inc., priority 2014, dated 2016)
